Source: PubChem BioAssay
rTrxR1 inhibitor: rat TrxR1 inhibition; recombinant rTrxR1, NADPH fluorescence consumption, selenite substrate; Potency, µM (series often up to 114 µM), for inactives: at the highest dose activity change, negative = inhibition, actives largely listed as inhibitors; O89049; 390,000 compounds, 1% hits; AID 588453; also: potency is read from the fitted curve at half-maximal effect; % is scaled to controls: 0 for no effect and ±100 for the full control effect; nearly all actives have a fitted effect of over 65% in size
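Rat TrxR1 (90 nM in the dispensed reagent) was pre-reduced with 400 uM NADPH for 5 min at room temperature, then incubated with compound for 15 min. After 400 uM selenite was added, NADPH fluorescence (Ex 340/Em 450 nm) was followed for 8 min.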
GALK inh: galactokinase (human) inhibition; P51570; Purified GALK, Kinase-Glo residual ATP luminescence; Potency, µM (titrated, usually from 57.5 µM), for inactives: at the highest dose activity change, negative = inhibition, actives largely listed as inhibitors; 270,000 compounds, 0.007% hits; also: potency is read from the fitted curve at half-maximal effect; % is scaled to controls: 0 for no effect and ±100 for the full control effect
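Kinase-Glo Plus luminescence measured ATP left after a 1 h room-temperature reaction. The reaction used 5 nM GALK, 100 uM galactose and 35 uM ATP at pH 8.0 (20 mM HEPES, 5 mM MgCl2, 60 mM NaCl, 1 mM DTT, 0.01% BSA).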
PINK1 expr mod: PINK1 expression modulation; PINK1 immunofluorescence, high-content cytometry, 24 h; Potency, µM (titrated, usually from 76.6 µM), for inactives: top-dose activation (PINK1 increase), usual class: activators; 410,000 compounds, 0.2% hits; active = well fitted activation curve with a large enough effect; inconclusive = small, poorly fitted or top-dose-only effect; cell line not stated here; also: potency is read from the fitted curve at half-maximal effect; % of control where 0% means no effect; nearly all actives have a fitted effect of over 65% in size
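PINK1 protein level read as immunofluorescence by microplate cytometer in a fixed, stained stable cell line after 24 h exposure to five compound concentrations, with CCCP as control.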
miR-21 reporter: raises the signal of a miR-21 reporter; AID 2288; 340,000 tested, under 10 active; Potency, µM (doses to about 38.3 µM), inactives show at the top dose reporter change, positive = more light; HeLa miR-21 FLuc reporter, luciferase, 48 h; active = well fitted rising curve with a large enough effect; inconclusive = small, poorly fitted or top-dose-only effect; inactive = no such curve, though single readings can be large or run the other way;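 note: % of control where 0% means no effect; miR-21 action dims this reporter so a rising signal means less miR-21 action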
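Luminescence from a firefly luciferase reporter carrying a miR-21 binding site downstream, stably expressed under a CMV promoter in HeLa cells that make miR-21 endogenously, reports miRNA modulation after 48 h compound exposure up to approximately 40uM final.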
TrxR1 substrate: is turned over as a substrate by rat TrxR1. O89049. purified TrxR1 substrate turnover, NADPH consumption readout. Potency, µM (series often up to 114 µM), inactives show top-dose activity change, negative = substrate turnover. 390,000 compounds, 0.01% hits; also: potency is read from the fitted curve at half-maximal effect; % is scaled to controls: 0 for no effect and ±100 for the full control effect; nearly all actives have a fitted effect of over 50% in size
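Rat TrxR1, dispensed at 90 nM, was prereduced with 400 uM NADPH (final) for 5 min at ~22 deg C, then incubated with compound 15 min before 400 uM selenite. A first-read NADPH fluorescence drop versus no-compound background flagged substrates.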
The depositor's hits bear a star; ? = inconclusive; nt = no result; [ ] = another dose, or the depositor's remark. An excerpt weighted towards active compounds, which were near 1.1% of everything screened. Unless noted, calls follow the shape of the dose curve; as a rule, active = well fitted curve in the direction sought with a large enough effect; inconclusive = small, poorly fitted or top-dose-only effect, or another doubt; inactive = no such curve, though single readings can be large; an effect the other way counts as inactive or inconclusive.

SMILES	rTrxR1 inhibitor	GALK inh	PINK1 expr mod	miR-21 reporter	TrxR1 substrate
O=C(CC(Cl)(Cl)Cl)N1CCN(/[N+]([O-])=N/Oc2ccc([N+](=O)[O-])cc2[N+](=O)[O-])CC1	?	nt	0%	nt	-2%
CCOC(=O)N1CCN([N+]([O-])=NOc2cc(O/N=[N+](\[O-])N(C)C)c([N+](=O)[O-])cc2[N+](=O)[O-])CC1	28µM*	nt	nt	nt	-17%
COc1ccc(CCNC(=O)c2ccc3c(c2)N=C(C)c2cc(C)ccc2S3)cc1OC	13%	nt	1%	19%	-1%
CC(=O)c1ccc(N2CCN(c3nc4ccccc4c4nc(-c5cccc(C)c5)nn34)CC2)cc1	14%	nt	10%	-7%	6%
C=CCn1c(SCC(=O)N2c3ccccc3Sc3ccccc32)nnc1-c1ccco1	-3%[57.1 µM]	-1%	0%	0%	5%[57.1 µM]
CCn1c(SCC(=O)N2c3ccccc3Sc3ccccc32)nnc1-c1ccco1	20µM*	0%	nt	-6%	9%
Cc1nc([N+](=O)[O-])c(Br)n1CC(=O)c1ccc(Br)cc1	11µM*	-1%	-1%	?	4%
Cc1nc([N+](=O)[O-])c(Br)n1CC(=O)c1ccccc1	11µM*	-1%	14%	21%	-9%
Cc1nc([N+](=O)[O-])c(Br)n1CC(=O)c1ccc2ccccc2c1	11µM*	-1%	-1%	?	-5%
Cc1cc([N+](=O)[O-])nn1CC(=O)c1ccccc1	16%	8%	1%	0%	0%
CCN(CC)CCNC(=O)Nc1ccc2c(c1)N(Cc1ccccc1)C(=O)c1ccccc1S2	-5%	nt	2%	11%	-4%
O=C1C(=O)c2ccc(-c3ccccc3)cc2-c2ccccc21	?	?	-3%	-7%	10µM*
Nc1ccc2c(c1)C(=O)C(=O)c1ccccc1-2	6.3µM*	6.3µM*	-4%	?	4µM*
Nc1ccc2c(c1)C(=O)c1ccccc1-2	20%	nt	3%	nt	0%
COc1ccc2nc(N(Cc3cccnc3)C(=O)c3ccc(Cl)cc3)sc2c1	10%[57.1 µM]	nt	?	-8%	4%[57.1 µM]
COc1cc(=O)n2c(c1C(=O)N(C)Cc1nccs1)CCN(Cc1c(F)ccc(F)c1F)CC2	nt	nt	0%	nt	nt
CCOc1ccc(-c2c(C(=O)N/N=C(\C)c3ccncc3)nnn2-c2nonc2N)cc1	-24%	7%	7%	-1%	13%
C/C(=N\NC(=O)c1nnn(-c2nonc2N)c1-c1cccs1)c1ccncc1	35µM*	-5%	2%	7%	2%
C=CC(=O)c1ccc(CCCCCC)cc1	13µM*	nt	nt	nt	17%[57.1 µM]
COc1cc(Nc2ccc(C)cc2)c([N+](=O)[O-])nc1[N+](=O)[O-]	4.5µM*	-2%	8%[38.3 µM]	26%	-12%

Some of these compounds in order of their number in miR-21 reporter, ascending:
SMILES	rTrxR1 inhibitor	GALK inh	PINK1 expr mod	miR-21 reporter	TrxR1 substrate
COc1ccc2nc(N(Cc3cccnc3)C(=O)c3ccc(Cl)cc3)sc2c1	10%[57.1 µM]	nt	?	-8%	4%[57.1 µM]
C=CCn1c(SCC(=O)N2c3ccccc3Sc3ccccc32)nnc1-c1ccco1	-3%[57.1 µM]	-1%	0%	0%	5%[57.1 µM]
C/C(=N\NC(=O)c1nnn(-c2nonc2N)c1-c1cccs1)c1ccncc1	35µM*	-5%	2%	7%	2%

Remaining list, next part
SMILES	rTrxR1 inhibitor	GALK inh	PINK1 expr mod	miR-21 reporter	TrxR1 substrate
Cc1cc(C)cc(Nc2ccc([N+](=O)[O-])nc2[N+](=O)[O-])c1	-3%	-3%	-1%[38.3 µM]	11%	4%
NCc1nc2cccnc2n1Cc1ccccc1Cl	-6%	nt	3%	1%	-4%
O=[N+]([O-])c1ccc(O)c(C(C#Cc2ccccc2)N2CCOCC2)c1 (stereo not drawn)	9%	3%	40µM*	-21%	-3%
CCOc1ccc(-c2nc(S(=O)(=O)c3ccccc3)c(N3CCC(C(N)=O)CC3)o2)cc1	45µM*	-2%	0%	0%	-6%
N#Cc1sc2nc(-c3ccccc3)cc(C(F)(F)F)c2c1N	8%	0%	11µM*	-2%	-1%
Cc1cc2[nH]c(=O)c(=O)[nH]c2cc1S(=O)(=O)Nc1cccc(C(F)(F)F)c1	12%	nt	1%	-4%	-3%
CC(C)(C)n1ncc2c(=O)n(Cc3ccc(Cl)c(C(F)(F)F)c3)cnc21	8%	nt	nt	nt	-4%
COc1cc(/C=C(/C(=O)c2cccs2)c2nc3ccccc3[nH]2)ccc1O	14µM*	-2%	-46%[38.3 µM]	25%	-11%[57.1 µM]
O=C(/C(=C/c1ccc(Cl)cc1)c1nc2ccccc2[nH]1)c1cccs1	?	-4%	-4%	?	-10%
Cc1csc2nc(COC(=O)c3ccc(NC(=O)C(C)Oc4ccccc4)cc3)cc(=O)n12 (stereo not drawn)	11%[57.1 µM]	nt	0%	-4%	3%[57.1 µM]

One compound at a time, as listed above. Values in the order: rTrxR1 inhibitor, GALK inh, PINK1 expr mod, miR-21 reporter, TrxR1 substrate
Cc1cc2[nH]c(=O)c(=O)[nH]c2cc1S(=O)(=O)Nc1cccc(C(F)(F)F)c1 reads 12%, nt, 1%, -4%, -3%
Cc1cc(C)cc(Nc2ccc([N+](=O)[O-])nc2[N+](=O)[O-])c1 reads -3%, -3%, -1%[38.3 µM], 11%, 4%
